## Ab-14 heavy chain CDR variants: yeast mating affinities

From the AlphaSeq antibody data of Li et al. 2023 (doi:10.1038/s41467-023-39022-2), copy in the FLAb collection.

All variants were tested on one target, the spike HR2 peptide PDVDLGDISGINAS (SARS-CoV-2).

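This is the validation round: designs drawn from the data on random variants, tested in the same kind of assay. Their group label is 14H_GPLM_HC (GPLM: also part of the Gaussian process libraries; HC: hill climbing; a sequence that several methods proposed may carry one label only). AlphaSeq pools MATa yeast showing the antibodies with MATalpha yeast showing the peptide. Binding brings cells together so that they mate, and sequencing counts the barcode pairs among the diploids. Read counts were normalised to the haploid input and turned into Kd by a linear fit to BCL2-family pairs of known affinity, for each replicate. Each pool was mated in six replicate cultures.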

Ab-14 is the parent antibody, in scFv form: VH, then a (GGGGS)3 linker, then VL. The light chain is unchanged in all variants.
VH: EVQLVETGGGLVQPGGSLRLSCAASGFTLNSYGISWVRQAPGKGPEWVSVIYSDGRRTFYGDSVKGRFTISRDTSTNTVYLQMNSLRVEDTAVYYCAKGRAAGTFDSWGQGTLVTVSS
VL: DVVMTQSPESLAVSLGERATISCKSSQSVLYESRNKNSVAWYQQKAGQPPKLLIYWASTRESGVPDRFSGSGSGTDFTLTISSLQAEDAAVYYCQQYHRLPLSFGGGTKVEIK

The parent's heavy chain CDRs are GFTLNSYGIS, VIYSDGRRTFYGDSVK, GRAAGTFDS; each variant's own CDRs replace them letter for letter.
The read-out is the apparent dissociation constant on a log10 scale (nM): the lower, the stronger.
Where no diploid with the target was found in that replicate, the entry reads "nd": below detection, most likely a poor binder, though not proof of it.
Values of this round are not directly comparable with the first-round values of the same sequences.
Of ten entries with the parent sequence, four were seen in most replicates (averages 0.34 to 2.37), three in one and three in none, so single entries are noisy.
Nonspecific signal, from three strains lacking the peptide, appeared in 1% of pairings of all heavy chain designs, centred on 2.08 (5% of these signals below 0.84); values are not corrected for it. Also given: how often the same scFv was detected with the empty control strains, with their mean in brackets.
The authors averaged sequences with at least three values out of six and counted those with two or fewer as poor binders.

CDR-H1	CDR-H2	CDR-H3	log10 Kd, replicates	empty controls
GFNLNEYGIS	VIYSDGRRTFYTDSVK	GRYAGTFDS	0.45 0.19 0.48 0.43 0.17 0.53	0 of 18
GFTLNDYGIS	VIYSDGRRTFYIDSVK	GRAAGSFDS	1.97 1.62 1.43 1.04 1.16 1.98	2 of 18 (1.99)
GFSLNSYGIS	VIYADGRRTFYGDSVK	GRAAGTNDS	nd nd nd nd nd 1.82	0 of 18
GFALNEYGIS	VIYSDGRRTFYMDSVK	GRTAGTFDS	1.67 nd nd 2.73 2.51 2.45	0 of 18
GFTLNDYGIS	VIYSDGRRTFYIDSVK	GRLAGTFDS	1.34 1.13 1.10 1.19 0.58 1.32	0 of 18
GFQLNEYGIS	VIYSDGRRTFYSDSVK	GRAAGHFDS	nd nd nd nd nd nd	1 of 18 (2.67)
GFTLNNYGIS	VIYSDGRRTQYIDSVK	GRAAGTFDS	1.83 nd nd nd 4.20 nd	0 of 18
GFTLNEYGIS	VIYSDGRRTMYSDSVK	GRAAGTFDS	1.22 1.12 1.40 0.88 0.94 1.30	0 of 18
GFTLNEYGIS	VIYSDGKRTFYSDSVK	GRAAGTFDS	0.40 -0.03 0.39 0.10 0.07 0.15	0 of 18
GFTLDSYGIS	VIYSDGRRTFYGDSVK	GRAAGTFDD	nd 0.18 1.75 0.56 0.70 0.88	1 of 18 (1.40)
GFTLNEYGIS	VIYSDGIRTFYGDSVK	GRAAGTFTS	nd nd nd nd nd nd	0 of 18
GFDLNSYGIS	VIYSDGRRTFYGDSVK	GRTAGMFDS	1.23 nd 1.69 nd nd nd	0 of 18
GFTLNDYGIS	VIYSDGRRTQYIDAVK	GRAAGTFDS	1.50 1.65 1.61 1.08 1.45 1.95	1 of 18 (2.27)
GFTLNQYGIS	VIYSDGRRTFYSDSVK	GRAAGHFTS	nd nd nd 0.83 1.67 1.66	0 of 18
GFTLNSYGIS	VIYSDGRKTFYDDSVK	GQVAGTFDS	0.17 1.20 0.90 1.44 1.06 1.51	0 of 18
GFTLNQYGIS	VIYSDGRRTFYADSVK	GRAAGTFDK	0.37 0.67 -0.01 0.60 0.76 1.23	1 of 18 (2.24)
GFTLNEYGIS	VIYSDGRRTFYGDSVK	GRCAGTFDT	0.44 -0.14 -0.10 -0.16 -0.07 -0.21	0 of 18
GFTLNSYGIS	VIYSDGRRTFYSDSVK	GAAGGTFDT	nd 1.74 1.46 1.14 1.71 nd	0 of 18
GFTLNEYGIS	VIYSDGRRTFYGDSVK	GRHAGTFWS	nd nd nd nd nd 1.94	0 of 18
GFTLDSYGIS	VIYSDGRRTFYGDSVK	GRAAGTFVQ	nd nd nd nd nd nd	0 of 18
YFTLNDYGIS	VIYSDGRRTQYIDSVK	GRAAGTFDS	nd nd nd 2.29 1.37 nd	0 of 18
GFELNEYGIS	VIYSDGRRTFYGDSVK	GRAAVTFDQ	nd nd nd nd 1.70 nd	1 of 18 (1.65)
GFTLNEYGIS	VIYSDGRRTFYEDSVK	GRFAGTFDS	0.87 nd 0.96 0.57 0.32 -0.54	0 of 18
GFTLNDYGIS	VIYSDGRRTFYADSVK	GRAAGTFES	0.83 0.76 0.68 0.58 0.63 1.58	1 of 18 (2.17)
GFDLNSYGIS	VIYSDGRRTFYCDSVK	GNAAGTFDS	1.23 1.10 1.70 nd 1.16 2.78	0 of 18
GFTLNSYGIS	VIYSDGRRTFYTDSVK	GNEAGTFDS	-0.58 -0.75 -0.57 0.07 -0.57 -0.56	0 of 18
GFTLNEYGIS	VIYSDGYRTFYGDSVK	GRAAVTFDQ	nd nd nd nd nd nd	0 of 18
GFTLNEYGIS	VIYSDGRRTFYGDSVK	GRNAGTFIS	nd nd nd nd nd nd	0 of 18
GFTLNSYGIS	VIYSDGRRTFYNDSVK	GQLAGTFDS	nd nd nd nd nd nd	0 of 18
GFTLNSYGIS	VIYSDGKRTFYIDSVK	GEAAGTFDS	nd nd 1.73 1.71 0.63 nd	0 of 18
GFTLNDYGIS	VIYSDGRRTHYIDSVK	GRAAGTFDS	0.33 0.20 0.30 0.30 0.17 0.39	1 of 18 (2.42)
GFTLNDYGIS	VIYSDGRRTFYQDSVK	GRAAGTFIS	nd nd nd nd nd nd	0 of 18
GFSLNQYGIS	VIYSDGRRTQYIDSVK	GRAAGTFDS	0.39 0.13 0.13 -0.06 0.34 0.40	0 of 18
GFQLNEYGIS	VIYSDGRRTFYGDSVK	GRAAVTFDS	nd nd nd nd nd nd	0 of 18
GFQLNDYGIS	VIYSDGRRTFYIDSVK	GRAAGTFDS	0.42 0.76 0.62 nd 0.00 1.03	0 of 18
GFTLNDYGIS	VIYSDGRRTWYIDSVK	GRAAGTFDS	1.34 1.11 0.63 0.97 1.82 0.70	0 of 18
GFDLNSYGIS	VIYSDGRRTFYGDSVK	GRAAGYFDS	nd nd nd nd nd nd	0 of 18
GFTLNEYGIS	VIYSDGRRTFYGDSVK	GRAAGTFWS	nd nd nd nd nd nd	0 of 18
GFSLNQYGIS	VIYSDGRRTFYSDSVK	GRAAGFFDS	nd nd nd nd nd nd	0 of 18
GFTLNSYGIS	VIYSDGRRTFYSDSVK	GRVSGTFDS	1.96 2.34 1.80 2.09 2.81 1.74	1 of 18 (2.92)
GFELNSYGIS	VIYSDGRRTFYGDSVK	GRAAGHFNS	nd nd nd nd nd nd	0 of 18
GFELNSYGIS	VIYSDGRRTFYTDSVK	GRVAGTFDS	0.05 -0.08 0.23 0.68 0.63 -0.21	0 of 18

Again, the first 3 entries without any signal:

CDR-H1,CDR-H2,CDR-H3,"log10 Kd, replicates",empty controls
GFQLNEYGIS,VIYSDGRRTFYSDSVK,GRAAGHFDS,nd nd nd nd nd nd,1 of 18 (2.67)
GFTLNEYGIS,VIYSDGIRTFYGDSVK,GRAAGTFTS,nd nd nd nd nd nd,0 of 18
GFTLDSYGIS,VIYSDGRRTFYGDSVK,GRAAGTFVQ,nd nd nd nd nd nd,0 of 18